Test results from patent US20020061839A1, “Serine peptidase modulators” (priority 1998, published 2002).

By UniProt entry, the sequences of proteins in these tests, tags left out.
UniProt P27487, whole entry: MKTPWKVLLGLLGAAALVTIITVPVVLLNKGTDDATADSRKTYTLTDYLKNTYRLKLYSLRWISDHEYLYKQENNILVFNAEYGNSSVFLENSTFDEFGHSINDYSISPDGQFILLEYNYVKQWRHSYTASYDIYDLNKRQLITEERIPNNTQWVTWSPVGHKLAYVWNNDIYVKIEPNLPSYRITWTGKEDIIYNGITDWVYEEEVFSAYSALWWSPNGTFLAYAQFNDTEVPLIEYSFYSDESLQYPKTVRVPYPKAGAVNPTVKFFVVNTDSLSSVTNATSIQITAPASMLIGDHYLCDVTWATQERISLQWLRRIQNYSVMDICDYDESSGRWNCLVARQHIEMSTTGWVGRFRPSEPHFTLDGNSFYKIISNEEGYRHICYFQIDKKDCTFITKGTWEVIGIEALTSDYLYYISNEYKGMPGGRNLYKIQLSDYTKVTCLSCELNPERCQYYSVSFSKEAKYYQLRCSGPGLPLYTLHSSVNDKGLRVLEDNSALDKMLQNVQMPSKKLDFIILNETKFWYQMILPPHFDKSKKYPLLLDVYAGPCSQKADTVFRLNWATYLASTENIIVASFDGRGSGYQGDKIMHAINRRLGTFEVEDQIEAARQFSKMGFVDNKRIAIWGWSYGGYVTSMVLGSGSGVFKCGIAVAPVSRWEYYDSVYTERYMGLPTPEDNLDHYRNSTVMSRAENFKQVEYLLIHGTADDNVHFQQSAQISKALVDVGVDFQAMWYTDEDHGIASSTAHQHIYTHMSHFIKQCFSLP

The compounds below were run against DPP IV (Homo sapiens, UniProt P27487). Details: pH 8.3, 15 min.
For CC(=O)Nc1cccc(OP(=O)(Oc2cccc(NC(C)=O)c2)C2CCCN2C(=O)[C@@H]2CCCN2)c1.Cl (mixture of isomers) [11d], the “kcalc (second order rate constant of inactivation)” value (“kcalc” for short) was 960 M⁻¹ s⁻¹.
In the case of CS(=O)(=O)Nc1ccc(OP(=O)(Oc2ccc(NS(C)(=O)=O)cc2)C2CCCN2C(=O)[C@@H]2CCCN2)cc1.Cl (mixture of isomers) [11f, Di(4-methylsulfonylaminophenyl) 1-((S)-prolyl)-pyrrolidine-2(R,S)-phosphonate hydrochloride], the “kcalc” value is reported as 1900 M⁻¹ s⁻¹.
Cl.O=C(CNC(=O)c1ccccc1)Nc1ccc(OP(=O)(Oc2ccc(NC(=O)CNC(=O)c3ccccc3)cc2)C2CCCN2C(=O)[C@@H]2CCCN2)cc1 (mixture of isomers) [11h, Di[4-(N-benzoylglycylamino)phenyl]-1-((S)-prolyl)pyrrolidine-2(R,S)-phosphonate hydrochloride] was tested, and the “kcalc” value was 1100 M⁻¹ s⁻¹.
In the case of Cl.Cl.Cl.NCC(=O)Nc1ccc(OP(=O)(Oc2ccc(NC(=O)CN)cc2)C2CCCN2C(=O)[C@@H]2CCCN2)cc1 (mixture of isomers) [11i, Di[4-(N-glycylamino)phenyl]-1-((S)-prolyl)-pyrrolidine-2(R,S)-phosphonate trihydrochloride], the “kcalc” value is reported as 1500 M⁻¹ s⁻¹.
For COC(=O)CCNC(=O)c1ccc(OP(=O)(Oc2ccc(C(=O)NCCC(=O)OC)cc2)C2CCCN2C(=O)[C@@H]2CCCN2)cc1.Cl (mixture of isomers) [11o, Di{4-[2-(methoxycarbonyl)ethylaminocarbonyl]phenyl}1-((S)-prolyl)-pyrrolidine-2(R,S)-phosphonate hydrochloride], the “kcalc” value was 21000 M⁻¹ s⁻¹.
With CCCNC(=O)c1ccc(OP(=O)(Oc2ccc(C(=O)NCCC)cc2)C2CCCN2C(=O)[C@@H]2CCCN2)cc1.Cl (mixture of isomers) [11p, Di[4-(n-propylaminocarbonyl)phenyl]1-((S)-prolyl)-pyrrolidine-2(R,S)-phosphonate hydrochloride] the “kcalc” value was 26000 M⁻¹ s⁻¹.
